{"sequences": {"note": "Chains of the proteins cited; added tags and fusions are not shown.", "UniProt P10415, whole entry": "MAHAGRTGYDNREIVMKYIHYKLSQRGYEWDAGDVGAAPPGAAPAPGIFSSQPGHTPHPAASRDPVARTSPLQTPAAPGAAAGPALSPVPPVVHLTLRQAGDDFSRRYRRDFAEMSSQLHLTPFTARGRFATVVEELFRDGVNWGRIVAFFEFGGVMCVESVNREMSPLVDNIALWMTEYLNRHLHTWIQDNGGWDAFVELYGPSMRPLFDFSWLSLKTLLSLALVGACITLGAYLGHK"}, "source": "patent US8952157B2", "about": "“Apoptosis-inducing agents for the treatment of cancer and immune and autoimmune diseases” (AbbVie Inc., priority 2008, dated 2015)"}
{"target": "GST-Bcl-2 (Homo sapiens (Human), UniProt P10415)", "test": "Time Resolved-Fluorescence Resonance Energy Transfer (TR-FRET) Bcl-2 binding assay", "settings": "not given", "protocol": "(§1) Determination of the utility of compounds having Formula (I) as binders to and inhibitors of anti-apoptotic Bcl-2 proteins was performed using the Time Resolved-Fluorescence Resonance Energy Transfer (TR-FRET) Assay. Tb-anti-GST antibody was purchased from Invitrogen (Catalog No. PV4216).\n(§2) Representative compounds were serially diluted in dimethyl sulfoxide (DMSO) starting at 50 μM (2× starting concentration; 10% DMSO) and 10 μL were transferred into a 384-well plate. The samples are then mixed on a shaker for 1 minute and incubated for an additional 3 hours at room temperature. For each assay, the probe/antibody and protein/probe/antibody were included on each assay plate as negative and positive controls, respectively. Fluorescence was measured on the Envision (Perkin Elmer) using a 340/35 nm excitation filter and 520/525 (F-Bak peptide) and 495/510 nm (Tb-labeled anti-Histidine antibody) emission filters.\nas §2, with “The” for “Representative compounds were serially diluted in dimethyl sulfoxide (DMSO) starting at 50 μM (2× starting concentration; 10% DMSO) and 10 μL were transferred into a 384-well plate. The”, “were” for “are”\n(§3) The inhibition constant (Ki) is the dissociation constant of an enzyme-inhibitor complex or a protein/small molecule complex, wherein the small molecule is inhibiting binding of one protein to another protein. So a large Ki value indicates a low binding affinity and a small Ki value indicates a high binding affinity.", "units": {"Ki": "nM"}}
{"smiles": "CO[C@H]1CC[C@H](CNc2ccc(S(=O)(=O)NC(=O)c3ccc(N4CCN(CC5=C(c6ccc(Cl)cc6)CC(C)(C)CC5)CC4)cc3Oc3cnc(N)c(Cl)c3)cc2[N+](=O)[O-])CC1", "note": "[Example 345, Trans-2-[(6-amino-5-chloropyridin-3-yl)oxy]-4-(4-{[2-(4-chlorophenyl)-4,4-dimethylcyclohex-1-en-1-yl]methyl}piperazin-1-yl)-N-[(4-{[(4-methoxycyclohexyl)methyl]amino}-3-nitrophenyl)sulfonyl]benzamide]", "Ki": 0.005}
{"target": "GST-Bcl-2 (Homo sapiens (Human), UniProt P10415)", "test": "Time Resolved-Fluorescence Resonance Energy Transfer (TR-FRET) Bcl-2 binding assay", "settings": "GST-Bcl-2 1 nM, F-Bak peptide probe 100 nM, Tb-anti-GST antibody 1 nM; Ki by Wang's equation", "protocol": "as §1, §2\nas §2, with “The” for “Representative compounds were serially diluted in dimethyl sulfoxide (DMSO) starting at 50 μM (2× starting concentration; 10% DMSO) and 10 μL were transferred into a 384-well plate. The”, “were” for “are”\nas §3", "units": {"Ki": "nM"}}
{"smiles": "COCCNc1ccc(S(=O)(=O)NC(=O)c2ccc(N3CCN(CC4=C(c5ccc(Cl)cc5)CC(C)(C)CC4)CC3)cc2Oc2cc(F)cc3[nH]ccc23)cc1[N+](=O)[O-]", "note": "[Example 269, 4-(4-{[2-(4-chlorophenyl)-4,4-dimethylcyclohex-1-en-1-yl]methyl}piperazin-1-yl)-2-[(6-fluoro-1H-indol-4-yl)oxy]-N-({4-[(2-methoxyethyl)amino]-3-nitrophenyl}sulfonyl)benzamide]", "Ki": 0.469}
{"smiles": "CN1CCN(Nc2ccc(S(=O)(=O)NC(=O)c3ccc(N4CCN(CC5=C(c6ccc(Cl)cc6)CC(C)(C)CC5)CC4)cc3Oc3cccc4[nH]cc(Cl)c34)cc2[N+](=O)[O-])CC1", "note": "[Example 286, 2-[(3-chloro-1H-indol-4-yl)oxy]-4-(4-{[2-(4-chlorophenyl)-4,4-dimethylcyclohex-1-en-1-yl]methyl}piperazin-1-yl)-N-({4-[(4-methylpiperazin-1-yl)amino]-3-nitrophenyl}sulfonyl)benzamide]", "Ki": 3.18}
{"smiles": "CC1(C)CCC(CN2CCN(c3ccc(C(=O)NS(=O)(=O)c4ccc(NC5CCN(S(C)(=O)=O)CC5)c([N+](=O)[O-])c4)c(Oc4cc5cc[nH]c5cc4F)c3)CC2)=C(c2ccc(Cl)cc2)C1", "note": "[Example 319, 4-(4-{[2-(4-chlorophenyl)-4,4-dimethylcyclohex-1-en-1-yl]methyl}piperazin-1-yl)-2-[(6-fluoro-1H-indol-5-yl)oxy]-N-[(4-{[1-(methylsulfonyl)piperidin-4-yl]amino}-3-nitrophenyl)sulfonyl]benzamide]", "Ki": 0.198}
{"smiles": "CC1(C)CCC(CN2CCN(c3ccc(C(=O)NS(=O)(=O)c4ccc(OCC5COCCO5)c([N+](=O)[O-])c4)c(Oc4cnc(N)c(Cl)c4)c3)CC2)=C(c2ccc(Cl)cc2)C1", "note": "(stereo not drawn) [Example 344, 2-[(6-amino-5-chloropyridin-3-yl)oxy]-4-(4-{[2-(4-chlorophenyl)-4,4-dimethylcyclohex-1-en-1-yl]methyl}piperazin-1-yl)-N-{[4-(1,4-dioxan-2-ylmethoxy)-3-nitrophenyl]sulfonyl}benzamide]", "Ki": 0.042}
{"smiles": "CN(C)CCOc1cccc(-c2ccc(Cl)cc2)c1CN1CCN(c2ccc(C(=O)NS(=O)(=O)c3ccc(NCC4CCOCC4)c([N+](=O)[O-])c3)c(Oc3cnc(N)c(Cl)c3)c2)CC1", "note": "[Example 398, 2-[(6-amino-5-chloropyridin-3-yl)oxy]-4-[4-({4′-chloro-3-[2-(dimethylamino)ethoxy]-1,1′-biphenyl-2-yl}methyl)piperazin-1-yl]-N-({3-nitro-4-[(tetrahydro-2H-pyran-4-ylmethyl)amino]phenyl}sulfonyl)benzamide]", "Ki": 0.175}
